Drawing on US20050049242A1 (priority 2000, published 2005), this text covers EC50 for one compound.

This assay concerns HIVLAI. The experiment in a line: Anti-HIV assay, protection from HIV-induced cell death. Format: cell-based. As to conditions: read-out: ED50 (concentration that inhibits HIV-induced cell death by 50%), MT-2 cells, 72 hr.

pEC50: −log10 of the molar value.

Take `O=C(O)[C@](O)(C(=O)/C=C/c1ccc(O)c(O)c1)[C@](O)(C(=O)O)C(=O)/C=C/c1ccc(O)c(O)c1` [Compound 2, Dicaffeoyl-D-tartaric acid]: the pEC50 was 5.20.
